Experiment [1] deals with P2X purinoceptor 4 (Mus musculus, UniProt Q9JJX6). As to the kind of experiment: Inhibition of inward ion current elicited by ATP at mouse P2X4 receptor (mutant type). It counts as functional.
Experiment [2] addresses P2X purinoceptor 4 (Homo sapiens, UniProt Q99571).

By UniProt entry, the sequences of proteins in these tests, tags left out. Where a name states a change or a piece, a line headed by the entry shows the natural chain unless it says otherwise.
UniProt Q9JJX6: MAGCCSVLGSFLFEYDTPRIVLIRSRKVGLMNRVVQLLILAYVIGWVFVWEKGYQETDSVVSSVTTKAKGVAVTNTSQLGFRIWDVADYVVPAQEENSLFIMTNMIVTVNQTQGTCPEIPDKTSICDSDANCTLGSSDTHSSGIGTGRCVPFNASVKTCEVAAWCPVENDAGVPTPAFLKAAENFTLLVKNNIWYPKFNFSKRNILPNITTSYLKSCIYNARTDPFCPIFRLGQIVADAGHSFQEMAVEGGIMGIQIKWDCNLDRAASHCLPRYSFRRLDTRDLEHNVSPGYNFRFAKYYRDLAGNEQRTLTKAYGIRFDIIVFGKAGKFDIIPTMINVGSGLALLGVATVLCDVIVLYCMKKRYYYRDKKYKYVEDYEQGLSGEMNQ
UniProt Q99571: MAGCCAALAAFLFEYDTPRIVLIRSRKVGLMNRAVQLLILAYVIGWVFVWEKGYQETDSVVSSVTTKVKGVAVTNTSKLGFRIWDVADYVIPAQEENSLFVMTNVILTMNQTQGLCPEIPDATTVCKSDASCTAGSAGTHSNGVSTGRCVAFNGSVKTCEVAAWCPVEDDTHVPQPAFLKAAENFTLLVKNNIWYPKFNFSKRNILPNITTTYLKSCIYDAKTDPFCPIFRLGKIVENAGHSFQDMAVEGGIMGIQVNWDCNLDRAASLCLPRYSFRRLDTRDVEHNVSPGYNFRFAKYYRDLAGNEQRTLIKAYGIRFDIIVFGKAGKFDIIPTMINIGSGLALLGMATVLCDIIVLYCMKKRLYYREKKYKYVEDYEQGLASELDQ

Molecules are shown by their SMILES.

`Cc1nc(/N=N/c2ccc(S(=O)(=O)O)cc2S(=O)(=O)O)c(COP(=O)(O)O)c(C=O)c1O`: the 50% inhibitory concentration (IC50) is 21 µM in experiment [1] and 27.5 µM in experiment [2].

What is called IC50 is the concentration needed to halve the response being measured.
